This data set is described as follows: Size and zeta-potential of CPP/mRNA complexes by DLS. Type of data set: physicochemical.

As to Penetratin, the PDI (CPP/mRNA complex at the N/P ratio of Table 2, DLS, distilled water) amounted to 0.29. Also, under “CPP/mRNA complex at the N/P ratio of Table 2, Zetasizer Nano ZS, distilled water”, the “Zeta Potential” value is given as “+15.7 (±1.0) mV”. Besides, the “N/P Ratio (lowest N/P ratio to form the nanocomplexes)” value (CPP/mRNA complex, amine groups of peptide to phosphate groups of mRNA) was found to be 13.6. For the same substance, the “kind of particles formed with mRNA” value (N/P ratios increased to more than 10) is listed as “irregular large particles”.

The values are drawn from paper PMC9227323, “The Potential of Cell-Penetrating Peptides for mRNA Delivery to Cancer Cells” (Pharmaceutics, 2022).
